Values of other authors as cited in patent US20190015396A1, “VMAT2 INHIBITORS FOR TREATING NEUROLOGICAL DISEASES OR DISORDERS” (Neurocrine Biosciences, Inc., priority 2015, published 2019).

Amino acid sequences for entries named in this document (tags omitted).
UniProt Q05940, whole entry, species assumed: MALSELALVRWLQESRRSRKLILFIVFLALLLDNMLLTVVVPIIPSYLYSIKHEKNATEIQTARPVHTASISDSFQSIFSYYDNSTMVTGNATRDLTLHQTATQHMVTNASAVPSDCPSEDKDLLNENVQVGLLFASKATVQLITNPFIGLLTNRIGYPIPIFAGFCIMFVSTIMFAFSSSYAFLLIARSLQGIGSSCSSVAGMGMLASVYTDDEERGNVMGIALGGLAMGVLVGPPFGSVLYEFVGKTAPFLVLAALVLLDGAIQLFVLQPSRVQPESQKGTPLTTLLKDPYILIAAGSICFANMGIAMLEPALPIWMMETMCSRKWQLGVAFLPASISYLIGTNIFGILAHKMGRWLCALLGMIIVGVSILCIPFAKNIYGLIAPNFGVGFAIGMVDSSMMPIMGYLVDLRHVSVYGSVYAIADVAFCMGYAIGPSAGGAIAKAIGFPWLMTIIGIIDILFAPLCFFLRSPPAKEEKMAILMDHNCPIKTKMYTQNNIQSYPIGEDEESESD

Target: VMAT2 (Homo sapiens, UniProt Q05940)
Conditions: radioligand, American Radiolabeled Chemicals; tissue not stated

3H-dihydrotetrabenazine
Kd: 2.6 nM
